Laboratory results reported in PMC8411975, “Frag4Lead: growing crystallographic fragment hits by catalog using fragment-guided template docking” (Acta Crystallographica. Section D, Structural Biology, 2021).

Biological target: T1, endothiapepsin (EP) (Cryphonectria parasitica, UniProt P11838)
T1 sequence (P11838 90-419): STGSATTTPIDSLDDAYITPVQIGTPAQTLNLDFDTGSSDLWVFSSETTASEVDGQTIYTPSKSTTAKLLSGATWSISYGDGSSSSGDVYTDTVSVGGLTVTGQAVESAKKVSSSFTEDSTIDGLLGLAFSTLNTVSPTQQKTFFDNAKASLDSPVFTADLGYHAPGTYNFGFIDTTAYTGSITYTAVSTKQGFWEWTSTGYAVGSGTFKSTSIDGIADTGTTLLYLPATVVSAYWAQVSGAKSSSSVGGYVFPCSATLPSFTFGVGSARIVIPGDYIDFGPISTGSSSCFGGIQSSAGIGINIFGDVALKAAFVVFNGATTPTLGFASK
Experiment: Isothermal titration calorimetry (direct or SAP114-displacement titration) against EP
Format: binding
Conditions: 0.1 M sodium acetate pH 4.6, 3%(v/v) DMSO; direct or displacement titration (Table S2); FU5-1 (as HCl salt, 0.1% Tween 20) and FU5-2 in triplicate, others n = 1; read-out: Kd determined by ITC
Description: ITC experiments were conducted similarly to the procedure desribed by Schiebel, Radeva et al. (2016[▸]) on a MicroCal ITC200 (Malvern) instrument. All buffer solutions for ITC were prepared with the same batch of buffer as used to isolate the batch of EP. Details of the ITC experiments, including the protein and ligand concentrations for each experiment, are listed in Supplementary Table S2. […] All displacement titrations were conducted as single measurements, except for that of FU5-2 (n = 3). The affinities of the stronger binding follow-up ligands were determined by direct ITC titrations. For this, 1 mM compound in a buffer solution consisting of 0.1 M sodium acetate pH 4.6, 3%(v/v) DMSO was titrated into the same buffer additionally containing 50 µM EP to a final stoichiometry of N = 4.
The obtained thermogram peaks of all titrations (Supplementary Fig. S4) were integrated with Nitpic 1.1.8 (Keller et al., 2012[▸]). Subsequently, fitting of a single-site binding-model isotherm was performed using SEDPHAT 10.58d (Houtman et al., 2007[▸]). For the errors of the fit, see Supplementary Table S3. […] During the fit, ΔH was corrected for the heat of dilution, which was individually fitted for each experiment. The stoichiometry was arbitrarily fixed at the anticipated stoichiometry of N = 1 as appropriate for the present low c-value titrations (Rühmann et al., 2015[▸]).
Table S2. […]

## NC1=N/C(=N\Nc2ccccc2)c2ccccc21 [FU5-1]
  Kd: 6.4 µM
